Measurements as given in ChEMBL document CHEMBL1144303, “Structure-based design, synthesis and biochemical testing of novel and potent Smac peptido-mimetics” (Bioorg Med Chem Lett, 2005).

Sequences of proteins named here, by UniProt entry; tags and fusion partners are left off.
UniProt P98170, whole entry: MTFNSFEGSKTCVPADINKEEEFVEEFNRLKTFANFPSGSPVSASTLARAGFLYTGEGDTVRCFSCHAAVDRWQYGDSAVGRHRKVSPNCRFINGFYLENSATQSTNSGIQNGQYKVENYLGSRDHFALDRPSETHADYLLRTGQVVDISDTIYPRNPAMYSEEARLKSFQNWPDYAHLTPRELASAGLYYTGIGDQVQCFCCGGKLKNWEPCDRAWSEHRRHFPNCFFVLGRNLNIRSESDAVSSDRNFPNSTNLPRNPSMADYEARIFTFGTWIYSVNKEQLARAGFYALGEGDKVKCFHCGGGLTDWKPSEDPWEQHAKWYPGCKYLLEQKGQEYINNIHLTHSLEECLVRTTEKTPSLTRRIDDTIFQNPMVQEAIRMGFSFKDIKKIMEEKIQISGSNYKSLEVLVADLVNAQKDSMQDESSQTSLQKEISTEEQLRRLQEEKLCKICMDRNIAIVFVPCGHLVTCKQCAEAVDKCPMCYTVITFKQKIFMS

Biological target: E3 ubiquitin-protein ligase XIAP (Homo sapiens, UniProt P98170)

Ki: 28 nM
Structure (SMILES): CC(C)[C@H](NC(=O)[C@H](C)N)C(=O)N1CCC[C@H]1C(=O)NC(c1ccccc1)c1ccccc1
